Reference: patent publication US6686382B2, “Sulfonamides and derivatives thereof that modulate the activity of endothelin” (Encysive Pharmaceuticals Inc., priority 1999, dated 2004)

The chains behind the UniProt entries cited, without tags or fusion partners. Residues count along the entry.
UniProt P11712, whole entry: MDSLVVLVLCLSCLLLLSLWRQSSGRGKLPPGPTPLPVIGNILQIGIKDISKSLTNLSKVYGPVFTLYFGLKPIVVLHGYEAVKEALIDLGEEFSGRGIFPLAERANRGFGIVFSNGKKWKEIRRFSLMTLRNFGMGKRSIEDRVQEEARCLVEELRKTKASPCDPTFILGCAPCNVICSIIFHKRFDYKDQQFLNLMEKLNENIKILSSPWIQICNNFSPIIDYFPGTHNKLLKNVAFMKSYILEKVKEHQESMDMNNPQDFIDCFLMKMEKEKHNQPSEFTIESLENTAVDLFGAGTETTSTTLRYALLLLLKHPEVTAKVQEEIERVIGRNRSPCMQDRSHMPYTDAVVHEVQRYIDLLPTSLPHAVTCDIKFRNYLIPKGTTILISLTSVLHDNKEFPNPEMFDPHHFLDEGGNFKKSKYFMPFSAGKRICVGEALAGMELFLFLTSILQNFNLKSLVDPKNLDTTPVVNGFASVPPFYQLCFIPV
UniProt P08684, 2-503 limits assumed: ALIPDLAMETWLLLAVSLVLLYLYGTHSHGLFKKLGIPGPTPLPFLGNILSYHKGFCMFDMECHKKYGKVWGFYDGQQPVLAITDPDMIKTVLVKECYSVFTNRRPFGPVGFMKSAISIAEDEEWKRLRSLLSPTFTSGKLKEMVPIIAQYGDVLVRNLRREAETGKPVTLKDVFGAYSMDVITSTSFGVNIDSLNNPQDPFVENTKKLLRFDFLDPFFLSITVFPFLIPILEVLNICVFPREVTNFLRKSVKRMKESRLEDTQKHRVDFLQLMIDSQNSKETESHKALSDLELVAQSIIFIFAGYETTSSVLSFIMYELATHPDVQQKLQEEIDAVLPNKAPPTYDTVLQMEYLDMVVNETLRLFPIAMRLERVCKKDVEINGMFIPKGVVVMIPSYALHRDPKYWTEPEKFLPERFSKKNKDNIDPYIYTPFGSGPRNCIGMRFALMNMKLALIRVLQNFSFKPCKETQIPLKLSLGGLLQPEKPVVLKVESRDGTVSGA
UniProt P33261, whole entry: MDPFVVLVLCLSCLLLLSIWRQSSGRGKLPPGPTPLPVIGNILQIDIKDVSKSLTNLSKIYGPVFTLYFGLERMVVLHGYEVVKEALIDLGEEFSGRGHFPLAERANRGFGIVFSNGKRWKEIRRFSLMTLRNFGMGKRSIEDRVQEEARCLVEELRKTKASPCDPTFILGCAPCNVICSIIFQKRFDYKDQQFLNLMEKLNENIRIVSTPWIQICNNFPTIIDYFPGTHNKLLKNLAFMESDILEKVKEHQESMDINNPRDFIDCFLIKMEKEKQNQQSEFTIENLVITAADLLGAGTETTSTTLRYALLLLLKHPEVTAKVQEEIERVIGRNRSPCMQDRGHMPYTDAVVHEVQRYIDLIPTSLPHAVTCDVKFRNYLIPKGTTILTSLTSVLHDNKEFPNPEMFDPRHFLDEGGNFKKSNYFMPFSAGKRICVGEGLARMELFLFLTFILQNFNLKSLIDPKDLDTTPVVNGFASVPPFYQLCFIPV
UniProt P25101, 21-427 limits assumed: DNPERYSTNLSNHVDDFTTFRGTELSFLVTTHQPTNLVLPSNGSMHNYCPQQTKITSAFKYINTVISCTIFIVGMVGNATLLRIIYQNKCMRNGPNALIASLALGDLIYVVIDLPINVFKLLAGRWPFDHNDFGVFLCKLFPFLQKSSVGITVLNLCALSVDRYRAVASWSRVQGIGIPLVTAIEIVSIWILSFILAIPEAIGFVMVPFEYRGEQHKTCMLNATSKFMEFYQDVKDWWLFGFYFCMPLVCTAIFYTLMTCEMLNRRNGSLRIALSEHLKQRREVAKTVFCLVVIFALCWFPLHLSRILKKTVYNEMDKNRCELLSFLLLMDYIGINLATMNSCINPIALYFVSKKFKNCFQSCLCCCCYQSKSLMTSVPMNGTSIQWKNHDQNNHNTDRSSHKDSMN

Tests used:
CYP2C9 = CYP2C9 (Homo sapiens, UniProt P11712); assay: Cytochrome P450 enzyme assay, CYP2C9 (Gentest Supersomes, fluorometric); settings: read-out: CP450 2C9 IC50; human recombinant enzyme, mean IC50
Protocol: (§1) In vitro assays to determine the concentration of the compounds provided herein required for 50% inhibition of substrate metabolism (IC50) by different human cytochrome P450 enzymes (2C9, 2C19, 3A4) were conducted using human recombinant cytochrome P450 enzyme assays, developed by Gentest Corporation. These assays contain Gentest Supersomes™ (specific human cytochrome P450 enzyme, co-expressed with P450 reductase and cytochrome b5), a NADPH regenerating system, substrate and a concentration range of the compounds provided herein. The fluorescent product was the measured end point for these assays. IC50s were calculated using a four-parameter logistic equation with the bottom fixed at 0% inhibition and the top fixed at 100% inhibition. (Values are the mean IC50±SD when n is greater than 1.)
(§2) Assays were conducted in 96-well microtiter plates using fluorometric assays developed by Gentest Corporation. The 12 wells in each row were used for one inhibition curve. Wells 1 to 8 contained serial 1:3 dilutions of the test compound. Wells 9 to 12 contained no inhibitor and wells 11 and 12 were blanks for background fluorescence (stop solution was added before the enzyme). All concentration curves were performed in duplicate. […] Metabolite production per well was determined by measuring fluorescence using a fluorescent plate reader. […]
A 0.2 ml/well reaction mixture containing 2 pmol CYP2C9 (P258), 1.3 mM NADP^+, 3.3 mM glucose-6-phosphate, 3.3 mM magnesium chloride, 0.4 U/ml glucose-6-phosphate dehydrogenase and 75 μM 7-methoxy-4-trifluoromethylcoumarin in […] (pH 7.4), was incubated at 37° C. for 45 minutes. […] After incubation, the reaction was stopped by the addition of 75 μl stop solution (80% acetonitrile/20% 0.5 M Tris base) and fluorescence/well was measured using a Spectra Fluor (Tecan) or Cytoflour 2350 (Millipore) fluorescent plate reader. […]
(§3) The “% inhibition” was calculated as follows: [formula]
(§4) Concentration versus % inhibition curves were constructed in Prism (GraphPad, Inc.). The data was analyzed using “Top & Bottom Fixed” routine. […]

CYP3A4 = CYP3A4 (Homo sapiens, UniProt P08684); assay: Cytochrome P450 enzyme assay, CYP3A4 (Gentest Supersomes, fluorometric); settings: read-out: CP450 3A4 IC50; human recombinant enzyme, mean IC50
Protocol: as §1, §2
A 0.2 ml/well reaction mixture containing 4 pmol CYP3A4 (P202), 1.3 mM NADP^+, 3.3 mM glucose-6-phosphate, 3.3 mM magnesium chloride 0.4 U/ml glucose-6-phosphate dehydrogenase, 0.01% pluronic F68, and 50 μM resorufin benzyl ether in 200 mM potassium phosphate (pH 7.4), was incubated at 37° C. for 30 minutes. […] After incubation, the reaction was stopped by the addition of 75 μl stop solution (80% acetonitrile/20% 0.5 M Tris base) and fluorescence/well was measured within 1 hour using a Spectra Fluor (Tecan) fluorescent plate reader. […]
as §3, §4

CYP2C19 = CYP2C19 (Homo sapiens, UniProt P33261); assay: Cytochrome P450 enzyme assay, CYP2C19 (Gentest Supersomes, fluorometric); settings: read-out: CP450 2C19 IC50; human recombinant enzyme, mean IC50
Protocol: as §1, §2
A 0.2 ml/well reaction mixture containing 1 pmol CYP2C19 (P259), 1.3 mM NADP^+, 3.3 mM glucose-6-phosphate, 3.3 mM magnesium chloride, 0.4 U/ml glucose-6-phosphate dehydrogenase and 25 μM 3-cyano-7-ethoxycoumarin in 50 mM potassium phosphate (pH 7.4), was incubated at 37° C. for 45 minutes. […] After incubation, the reaction was stopped by the addition of 75 μl stop solution (80% acetonitrile/20% 0.5 M Tris base) and fluorescence/well was read within 1 hour using a Spectra Fluor (Tecan) fluorescent plate reader. […]
as §3, §4

[1] = Pharmacokinetic properties (oral availability, elimination half-life, Cmax); settings: in vivo
Excerpt: As used herein, bioavailability or oral availability refers to the rate and extent of absorption. Methods for determining bioavailability or oral availability are well known to those of skill in the art. For example, bioavailability or oral availability of any of the compounds described herein can be determined empirically by administration of the compound to an animal, followed by taking blood samples over time and measuring the blood concentration of the compound. In vivo half life (t1/2) is defined as the time it takes for the concentration of the compound in the blood to be reduced by one-half. Estimations of the area under the curve for intravenous administration can be used to estimate the area under the curve for oral administration, yielding bioavailability data. See, e.g., Milo Gibal (1991) Biopharmaceutics and Pharmacology, 4th edition (Lea and Sediger).

[2] = system: ETA receptors and ETB receptors; assay: Endothelin binding inhibition, ETA (TE 671) and ETB (transfected COS7) receptors: selectivity; settings: antagonism of ETA receptors over ETB receptors
human ETA receptors = human ETA receptors (Homo sapiens, UniProt P25101); assay: Endothelin binding inhibition, Binding Test #1: inhibition of binding to ETA receptors (TE 671 cell membranes); settings: relative to N-(4-chloro-3-methyl-5-isoxazolyl)-2-{[3,4-(methylenedioxy)-6-methylphenyl)acetyl]-thiophene-3-sulfonamide (= 1.0)
Excerpt: Compounds that are potential endothelin antagonists are identified by testing their ability to compete with ^125I-labeled ET-1 for binding to human ETA receptors or ETB receptors present on isolated cell membranes. The effectiveness of the test compound as an antagonist or agonist of the biological tissue response of endothelin can also be assessed by measuring the effect on endothelin induced contraction of isolated rat thoracic aortic rings. The ability of the compounds to act as antagonists or agonists for ETB receptors can be assess by testing the ability of the compounds are to inhibit endothelin-1 induced prostacyclin release from cultured bovine aortic endothelial cells.
A. Endothelin Binding Inhibition—Binding Test #1: Inhibition of Binding to ETA Receptors
TE 671 cells (ATCC Accession No. HTB 139) express ETA receptors. These cells were grown to confluence in T-175 flasks. Cells from multiple flasks were collected by scraping, pooled and centrifugedfor 10 min at 190×g. The cells were resuspended in phosphate buffered saline (PBS) containing 10 mM EDTA using a Tenbroeck homogenizer. […]
The supernatant, containing unbound radioactivity, was decanted and the pellet counted on a Genesys multiwell gamma counter. The degree of inhibition of binding (D) was calculated according to the following equation: [formula] […]

[3] = system: rats exposed to acute hypoxia; assay: Acute hypoxia model, mean pulmonary arterial pressure (MPAP) increase; settings: in vivo model, rat
Protocol: The chamber was gassed by adding N2 to the chamber intermittently from a liquid N2 reservoir. A baralyme (Allied Health Care Products, St. Louis, Mo., USA) CO2 scrubber kept the CO2 concentration <0.2%. Relative humidity within the chamber was kept <70% with anhydrous CaSO4. Boric acid was used to keep NH3 levels within the chamber at a minimum. See, Tilton et al. (2000) Pulm. Pharm. Ther. 13:87-97. In the initial experiment, effects of a test compound were assessed on mean pulmonary arterial pressure (MPAP) of rats subsequently exposed to acute hypoxia 90 min in duration. […] All catheters were connected to polyethylene (PE 20) tubing, and were exteriorized at the back of the neck by a stainless steel wire (0.018 in. diam) tunneled subcutaneously. Two days later, MPAP was recorded through the femoral and pulmonary arterial cannulas via transducers coupled to a polygraph recorder. […] Pulmonary pressure rapidly returned toward baseline values when this group was returned to room air at the end of the experiment.

SMILES	IC50 (CYP2C9) [µM]	IC50 (CYP3A4) [µM]	IC50 (CYP2C19) [µM]	Cmax [1] [µg]	t½ elim. [1] [h]	Selectivity (IC50 for ETB/IC50 for ETA) [2]	ETA ACTIVITY (ETA antagonist activity relative to reference compound) (human ETA receptors)	Acute Hypoxia: dose to achieve 50% inhibition of mean pulmonary artery pressure increase [3] [mg/kg]
Cc1cc(C)c(NC(=O)c2sccc2S(=O)(=O)Nc2onc(C)c2Cl)c(C#N)c1C [Compound 32, 3-{[(4-chloro-3-methyl-5-isoxazolyl)amino]sulfonyl}-N-(2-cyano-3,4,6-trimethylphenyl)-2-thiophenecarboxamide]	0.77	1.44	13.5	45.7	5.1	550000	–	–
Cc1cc(C)c(NC(=O)c2sccc2S(=O)(=O)Nc2onc(C)c2C)c(C#N)c1C [Compound 9, N-(2-cyano-3,4,6-trimethylphenyl)-3-{[(3,4-dimethyl-5-isoxazolyl)amino]sulfonyl}-2-thiophenecarboxamide]	2.38	3.3	14.4	85.8	–	330000	–	–
Cc1cc(C)c(NC(=O)c2sccc2S(=O)(=O)Nc2onc(C)c2Cl)c(C(=O)CS(C)(=O)=O)c1	5.1	4	50.6	–	–	66500	13.7	>5
